Laboratory results published in US10160867B2, “Benzoxaborole-containing coating resistant to cellulose-supportable fungus” (THE PENN STATE RESEARCH FOUNDATION, priority 2015, dated 2018).

Key:
Experiment in all cases: 3 day MIC, broth microdilution in 25% PDB
Assay type in all cases: cell-based
Settings in all cases: 72 h, read-out: 3 day MIC
[1] = test system: Aspergillus flavus
Method: (§1) Stock solutions (concentrations of between 4,000 μg/mL to 10,000 μg/mL; stored at −18° C.) of the above antifungals were prepared in dimethyl sulfoxide (DMSO). The stock solutions were further diluted into sterile 25% potato dextrose broth (PDB) so that the diluted solutions could be used for the antifungal susceptibility studies. This way, a typical microdilution study would reach a final ratio of about 0.5-2% v/v of DMSO in 25% PDB.
(§2) Spore inocula were prepared in sterile distilled water with 0.1% Tween® 20 (a polysorbate surfactant), and a hemocytometer was used to determine the spore density. Typically, the spore inoculum was prepared fresh prior to each study, and the inoculum was appropriately diluted to a final concentration of 0.4-1×10^5 spores/mL or colony-forming unit (CFU)/mL in each study. The spore suspension can be stored in a refrigerator at 4° C. for up to one week.
(§3) The minimal inhibitory concentrations (MICs) for individual antifungal agents were determined by following a modified broth microdilution protocol CLSI (Clinical and Laboratory Standards Institute) M38-A2 [Clinical and Laboratory Standards Institute (2008) Reference method for broth dilution antifungal susceptibility testing of filamentous fungi—2nd edition: Approved Standard M38-A2, CLSI, Wayne, Pa.] where 25% potato dextrose broth (PDB) was used as the medium. The studies were performed in flat bottom, 96-well microtiter plates (Greiner Bio-One, Frickenhausen, Germany).
(§4) Plates sealed with clear polyester film (VWR, Radnor, Pa.) were incubated at a temperature of about 25° C. The progress of fungal growth was monitored at 48 hours and 72 hours.

[2] = test system: Cladosporium cladosporioides
Method: as §1, §2, §3, §4

[3] = test system: Aureobasidium pullulans
Method: as §1, §2, §3, §4

[4] = test system: Aspergillus fumigatus
Method: as §1, §2, §3, §4

[5] = test system: Aspergillus niger
Method: as §1, §2, §3, §4

[6] = test system: Rhizopus spp.
Method: as §1, §2, §3, §4

[7] = test system: Mucor spp.
Method: as §1, §2, §3, §4

[8] = test system: Penicillium corylophilum
Method: as §1, §2
(§5) The studies were performed in flat bottom, 96-well microtiter plates (Greiner Bio-One, Frickenhausen, Germany).
as §4

[9] = test system: Stachybotrys chartarum
Method: as §1, §2, §5, §4

[10] = test system: Penicillium purpurogenum
Method: as §1, §2, §5, §4

[11] = test system: Penicillium chrysogenum
Method: as §1, §2, §5, §4

[12] = test system: Penicillium brevicompactum
Method: as §1, §2, §5, §4

SMILES: OB1OCc2ccccc21 [Compound B0, 2-(hydroxymethyl)-benzene boronic acid hemiester]
- MIC [1]: 2 µg/mL (≈ 14.9 µM)
- MIC [2]: 0.5 µg/mL (≈ 3.73 µM)
- MIC [3]: 1 µg/mL (≈ 7.47 µM)
- MIC [4]: 0.5 µg/mL (≈ 3.73 µM)
- MIC [5]: 2 µg/mL (≈ 14.9 µM)
- MIC [6]: 4 µg/mL (≈ 29.9 µM)
- MIC [7]: 0.5 µg/mL (≈ 3.73 µM)
- MIC [8]: 3.13 µg/mL (≈ 23.4 µM)
- MIC [9]: 0.5 µg/mL (≈ 3.73 µM)
- MIC [10]: 6.3 µg/mL (≈ 47 µM)
- MIC [11]: 3.13 µg/mL (≈ 23.4 µM)
- MIC [12]: 1.6 µg/mL (≈ 11.9 µM)

Converted amounts (≈) assume the structure as drawn.
